One series deals with SKBR3. In words: In vitro ADC cytotoxicity, MTS cell viability assay. Format: cell-based. To be noted: ADC exposure 4 days. As for the experimental part:
Medium from sub-confluent (80-90% confluency) cell culture in a T75 flask was aspirated and the flask rinsed with PBS (about 20 ml) and emptied. Trypsin-EDTA (5 ml) was added, the flask returned to the 37° C. gassed incubator for up to about 5 minutes, then rapped sharply to dislodge and dissociate cells from the plastic. The cell suspension was transferred to a sterile 50 ml screw-top centrifuge tube, diluted with growth medium to a final volume of 15 ml, then centrifuged (400 g for 5 min). The supernatant was aspirated and the pellet re-suspended in 10 ml culture medium. Repeated pipetting may be necessary to produce monodisperse cell suspensions. The cell concentration and viability are measured of trypan blue cell stained cells, using a haemocytometer. Cells were diluted to 2×10^5/ml, dispensed (50 μl/well) into 96 well flat bottom plates and incubated overnight before use. […]
At the end of the incubation period, cell viability was measured by MTS assay. […] Well absorbance was measured at 490 nm. Percentage cell survival was calculated from the mean absorbance in the 4 ADC-treated wells compared to the mean absorbance in the 4 control untreated wells (100%). IC50 was determined from the doses-response data using GraphPad Prism using the non-linear curve fit algorithm: sigmoidal, 4PL X is log(concentration).
(In general: Tetrazolium dyes change colour on reduction, which living cells bring about.)

In series [1] the test system is BT474 human breast carcinomas. In words: BT474 xenograft tumour growth delay study. Format: in vivo, SCID mice. The source says: Female severe combined immune-deficient mice (Fox Chase SCID®, C.B-17/Icr-Prkdcscid, Charles River) were ten weeks old with a body weight (BW) range of 16.2 to 21.9 grams on Day 1 of the study. The animals were fed adlibitum water (reverse osmosis, 1 ppm Cl), and NIH 31 Modified and Irradiated Lab Diet® consisting of 18.0% crude protein, 5.0% crude fat, and 5.0% crude fibre. The mice were housed on irradiated Enricho'cobs™ Laboratory Animal Bedding in static micro-isolators on a 12-hour light cycle at 20-22° C. (68-72° F.) and 40-60% humidity. CR Discovery Services specifically complies with the recommendations of the Guide for Care and Use of Laboratory Animals with respect to restraint, husbandry, surgical procedures, feed and fluid regulation, and veterinary care. The animal care and use program at CR Discovery Services is accredited by the Association for Assessment and Accreditation of Laboratory Animal Care International (AAALAC), which assures compliance with accepted standards for the care and use of laboratory animals.
Xenografts were initiated with BT474 human breast carcinomas maintained at CR Discovery Services by serial subcutaneous transplantation into the SCID mice (see above). On the day of tumour implant, each test mouse received a 1-mm^3 BT474 fragment implanted subcutaneously in the right flank, and tumour growth was monitored as the average size approached the target range of 100 to 150 mm^3. […] Tumours were measured in two dimensions using calipers, and volume was calculated using the formula: […]
Treatment began on Day 1 in groups of mice (n=10) with established subcutaneous BT474 tumors (75-196 mm^3). […] Tumors were measured twice per week until the study was ended on Day 60. […] The time to endpoint (TTE) was calculated for each mouse.
Treatment outcome was determined from percent tumor growth delay (% TGD), defined as the percent increase in median TTE for treated versus control mice, with differences between groups deemed statistically significant at P s 0.05 using logrank survival analysis. […]

The subject of series [2] is Human NCI-N87 gastric carcinoma. In words: NCI-N87 xenograft tumour growth delay study. The class given is in vivo, SCID mice. As to conditions: for median TTE: vehicle 44.9 days, 83-day study. As for the experimental part: Human NCI-N87 gastric carcinoma lymphoma cells were cultured in RPMI-1640 medium supplemented with 10% fetal bovine serum, 2 mM glutamine, 100 units/mL penicillin, 100 µg/mL streptomycin sulfate and 25 µg/mL gentamicin. The cells were grown in tissue culture flasks in a humidified incubator at 37° C., in an atmosphere of 5% CO2 and 95% air.
The NCI-N87 cells used for implantation were harvested during log phase growth and resuspended in phosphate buffered saline (PBS) containing 50% Matrigel™ (BD Biosciences). On the day of tumor implant, each test mouse (SCID mice as in Example 6) was injected subcutaneously in the right flank with 1×10^7 cells (0.1 mL cell suspension), and tumor growth was monitored as the average size approached the target range of 100 to 150 mm^3. Eleven days later, designated as Day 1 of the study, mice were sorted according to calculated tumor size into eleven groups each consisting of ten animals with individual tumor volumes ranging from 88 to 144 mm^3 and group mean tumor volumes of 119-121 mm3. Tumors were measured in two dimensions using calipers, and volume was calculated using the formula:
Tumour Volume (mm^3)=0.5(w^2×l)
Treatment began on Day 1 in groups of mice (n=10) with established subcutaneous NCI-N87 tumors (88-144 mm^3). […] A vehicle-treated group served as the control group for efficacy analysis. Tumors were measured twice per week until the study was ended on Day 81. Each mouse was euthanized when its tumor reached the endpoint volume of 800 mm^3 or on the final day, whichever came first. The time to endpoint (TTE) was calculated for each mouse.
(§1) Treatment outcome was determined from percent tumor growth delay (% TGD), defined as the percent increase in median TTE for treated versus control mice, with differences between groups deemed statistically significant at P s 0.05 using logrank survival analysis. Mice were monitored for complete regression (CR) and partial regression (PR) responses.
Treatment tolerability was assessed by body weight measurements and frequent observation for signs of treatment-related side effects. Treatment tolerability was assessed by body weight measurements and frequent observation for signs of treatment-related side effects. All regimens were acceptably tolerated.
Treatment began on Day 1 in groups of mice (n=10) with established subcutaneous NCI-N87 tumors (75-126 mm^3). […] A vehicle-treated group served as the control group for efficacy analysis. Tumors were measured twice per week until the study was ended on Day 83. Each mouse was euthanized when its tumor reached the endpoint volume of 800 mm^3 or on the final day, whichever came first. The time to endpoint (TTE) was calculated for each mouse.
as §1, with “responses. Treatment tolerability was assessed by body weight measurements and frequent observation for signs of treatment-related side effects. Treatment tolerability was assessed by body weight measurements and frequent observation for signs of treatment-related side effects. All regimens were acceptably tolerated.” for “responses.”

Series [3] in a line: Rat single dose toxicity study (MTD) / therapeutic index. Format: in vivo, Male Sprague Dawley rats. To be noted: single iv dose, 7 mg/kg.
Series [4] can be described thus: Cynomolgus macaque single-dose toxicity study. The class given is in vivo, Cynomolgus macaques monkeys (Macaca fascicularis). To be noted: cyno.
Where [5] appears, read: Treatment 1: 1 mg/kg iv qd×1, n=10.

Consider “Trastuzumab-23: trastuzumab conjugated to drug linker Compound 23 (SG3400); DAR 1.71”, for which, in the series on SKBR3, the “IC50 in SKBR3” value is 0.022 mg/L. In addition, the “partial regressions (PRs)” value in series [1] (setting [5]) was “four”. In series [2] (Treatment 1: 0.3 mg/kg iv qd×1), the TGD was 27.1 days and the “TGD (percent)” value came out at 51%. Besides, the “median TTE (time to endpoint)” value in series [2] (Treatment 1: 0.3 mg/kg iv qd×1, endpoint 800 mm^3, vehicle 53.4 days) is reported as 80.5 days. The “partial regressions (PR)” value in series [2] (setting [5]) is listed as “one”. For the same substance, in series [2] (Treatment 1: 1 mg/kg iv qd×1, P<0.001), the “survival benefit versus vehicle-treated controls (logrank)” value is reported as “statistically significantly different”. Further, in series [2] (Treatment 1: 1 mg/kg iv qd×1, maximum possible TGD 27.6 days (52%), 81-day study), the “tumor growth delay (TGD)” value is reported as “maximum possible TGD”. Moreover, the “adverse findings at the high dose” value in series [3] is listed as “minimal adverse findings”. In addition, the “major findings at the highest tested dose” value in series [4] (single iv dose 6 mg/kg) is “body weight loss and bone marrow suppression”. Besides, the mortality entry in series [4] (single iv dose 1, 3, 4.5 or 6 mg/kg) is “no unscheduled mortality”. Further, in series [4] (single iv dose […]), the “toxicity at next lowest dose” value is reported as “minimal signs of toxicity”.

For the substance Trastuzumab-40, the “IC50 in SKBR3” value with SKBR3 amounted to 0.019 mg/L. Moreover, the “partial regressions (PRs)” value in series [1] (Treatment 2: 1 mg/kg iv qd×1, n=9 or 10) is “four”. For the same substance, in series [1] (Treatment 2: 1 mg/kg iv qd×1, remained a tumour-free survivor (TFS) at study end), the “complete regression (CR)” value is given as “one”. Further, in series [2] (Treatment 2: 0.3 mg/kg iv qd×1), the TGD stood at 9.3 days, the “TGD (percent)” value was 21% and the “median TTE” value came to 54.2 days. Besides, in series [2] (Treatment 2: 1 mg/kg iv qd×1), the TGD amounted to 16.7 days, the “TGD (percent)” value is given as 37% and the “median TTE” value is listed as 61.6 days.

For the origin of these results see US20230143309A1, “PYRROLOBENZODIAZEPINE ANTIBODY CONJUGATES” (priority 2016, published 2023).
